Source: PubChem BioAssay AID1259375 (The Scripps Research Institute Molecular Screening Center, 2018)
Active and inactive are the calls of the source. How the calls were made is not given here.

Chains of the proteins cited; added tags and fusions are not shown. Lines headed by an entry give the natural chain unless they say otherwise; changes in a name come on top.
UniProt O75030: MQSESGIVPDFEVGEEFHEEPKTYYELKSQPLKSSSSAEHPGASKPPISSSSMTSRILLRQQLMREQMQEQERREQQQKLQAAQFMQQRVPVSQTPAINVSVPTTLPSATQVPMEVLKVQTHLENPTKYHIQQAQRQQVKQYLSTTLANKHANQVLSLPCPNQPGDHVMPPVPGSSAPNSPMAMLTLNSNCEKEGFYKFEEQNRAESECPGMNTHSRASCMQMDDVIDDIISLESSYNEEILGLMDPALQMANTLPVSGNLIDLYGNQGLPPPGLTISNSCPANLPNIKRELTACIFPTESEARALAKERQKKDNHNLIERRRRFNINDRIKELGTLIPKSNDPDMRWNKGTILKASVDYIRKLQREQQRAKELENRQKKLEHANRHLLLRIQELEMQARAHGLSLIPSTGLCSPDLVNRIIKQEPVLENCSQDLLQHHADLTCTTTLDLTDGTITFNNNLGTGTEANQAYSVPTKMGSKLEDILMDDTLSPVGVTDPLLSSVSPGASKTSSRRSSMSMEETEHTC

Target: Microphthalmia-associated transcription factor (Homo sapiens) (UniProt O75030)
Assay: MITF inhibitors by FRET titration, dose response, biochemical, high throughput (AID 1259375);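 further: FRET between CFP-tagged and YFP-tagged MITF protein partners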
Details: FRET biochemical assay, MITF inhibition

SMILES: CC(C)OP(=O)(OC(C)C)C(=O)c1ccco1
- IC50: inactive: > 7.35 µM
